Experimental data taken from patent US20210206850A1 (ACCURUS BIOSCIENCES, published 2021).

Biological target: T1, human SIRPα huFc protein (human, UniProt P78324, in part, FITC label in Examples 4 and 9 (FACS); unlabeled in Example 3)
T1 construct: extracellular domain; also called SIRPa huFc; human SIRPaECD huFc; not shown: human Fc
Experiment: FACS on CD47-CHO cells, human SIRPa huFc at 0.2 ug/ml, PE anti-human Fc gamma

binding result: binds
B1: human CD47 (full length) expressed on cells (receptor)
chain: not shown
notes: whole, on cells; also called human CD47/CHO cells; CHO/CD47 cells
